Experiments:
SIK3 = SIK3 (Homo sapiens (Human), UniProt Q9Y2K2); conditions: read-out: SIK3 IC50
[1] = Human liver microsomal stability; conditions: Table 5A
[2] = Mouse liver microsomal stability; conditions: Table 5A
[3] = Full pharmacokinetic study in mice

By UniProt entry, the sequences of proteins in these tests, tags left out. Where a name states a change or a piece, a line headed by the entry shows the natural chain unless it says otherwise.
UniProt Q9Y2K2: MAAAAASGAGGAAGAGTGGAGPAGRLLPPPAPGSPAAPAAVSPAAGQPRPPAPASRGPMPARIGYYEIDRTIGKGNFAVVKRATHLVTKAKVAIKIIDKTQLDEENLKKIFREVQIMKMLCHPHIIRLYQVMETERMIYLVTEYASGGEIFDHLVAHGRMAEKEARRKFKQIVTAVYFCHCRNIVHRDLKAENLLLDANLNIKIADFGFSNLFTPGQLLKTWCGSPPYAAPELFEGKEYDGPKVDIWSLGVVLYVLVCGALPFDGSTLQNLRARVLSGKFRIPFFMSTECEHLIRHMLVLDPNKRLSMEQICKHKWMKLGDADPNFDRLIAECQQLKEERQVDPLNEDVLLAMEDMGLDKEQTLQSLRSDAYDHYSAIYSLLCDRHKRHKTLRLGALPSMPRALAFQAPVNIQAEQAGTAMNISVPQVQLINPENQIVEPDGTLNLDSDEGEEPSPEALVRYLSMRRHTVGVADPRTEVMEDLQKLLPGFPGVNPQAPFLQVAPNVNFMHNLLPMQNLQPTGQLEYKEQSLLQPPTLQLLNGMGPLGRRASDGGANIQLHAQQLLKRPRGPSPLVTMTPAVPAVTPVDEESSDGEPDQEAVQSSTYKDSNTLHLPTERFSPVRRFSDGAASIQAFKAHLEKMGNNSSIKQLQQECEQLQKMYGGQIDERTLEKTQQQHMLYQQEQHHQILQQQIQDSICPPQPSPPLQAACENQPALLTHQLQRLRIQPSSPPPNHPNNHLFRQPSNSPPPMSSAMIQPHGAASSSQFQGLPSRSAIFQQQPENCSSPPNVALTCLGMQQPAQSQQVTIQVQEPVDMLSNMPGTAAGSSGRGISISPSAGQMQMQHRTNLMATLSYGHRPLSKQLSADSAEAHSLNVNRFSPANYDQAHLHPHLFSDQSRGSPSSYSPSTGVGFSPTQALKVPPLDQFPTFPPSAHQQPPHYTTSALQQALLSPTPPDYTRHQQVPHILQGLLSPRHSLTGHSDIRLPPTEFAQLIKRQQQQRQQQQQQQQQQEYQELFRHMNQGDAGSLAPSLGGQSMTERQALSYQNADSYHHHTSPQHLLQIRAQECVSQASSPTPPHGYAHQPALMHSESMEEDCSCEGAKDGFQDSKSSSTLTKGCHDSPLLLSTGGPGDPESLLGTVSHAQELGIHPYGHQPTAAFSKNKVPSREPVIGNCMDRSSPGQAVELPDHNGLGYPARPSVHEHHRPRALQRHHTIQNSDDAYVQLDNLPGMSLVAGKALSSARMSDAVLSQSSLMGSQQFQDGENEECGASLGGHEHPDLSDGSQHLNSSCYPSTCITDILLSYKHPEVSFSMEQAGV

## Cc1nc(Nc2ncc(C(=O)NC3CN4CCC3CC4)s2)cc(N2CCN(CCO)CC2)n1 (stereo not shown)
SIK3
  IC50: 8.85 µM

## Cc1nc(Nc2ncc(C(=O)Nc3c(C)csc3Cl)s2)cc(N2CCN(CCO)CC2)n1 [Compound C7, N-(2-chloro-4-methylthiophen-3-yl)-2-((6-(4-(2-hydroxyethyl)piperazin-1-yl)-2-methylpyrimidin-4-yl)amino)thiazole-5-carboxamide]
[1]
  Human liver microsomal stability, Half-life: 5 min
[2]
  Mouse liver microsomal stability, Half-life: 12 min
[3]; 1 mg/kg iv
  AUCinf: 0.36 µM·h
  AUClast: 0.34 µM·h
  CL: 94 mL/min/kg
  Tmax: 4.8 min
  Vss: 5.4 L/kg
  t1/2: 72 min
[3]; 30 mg/kg po
  AUCinf (nM*h): 2,337 nM*h
  AUClast (nM*h): 2,328 nM*h
  t1/2: 198 min
[3]; mice, 30 mg/kg po, total
  Tmax (h), Total: 2.00 h
